HCMV UL50-53 inh: cytomegalovirus nuclear egress complex inhibition; HTRF UL50-UL53 interaction, normalized percent inhibition; inhibition, % (no concentration beside the values); actives 0.15% (n = 190,000); AID 1918969; in the data active = inhibition above about 27%, passing the limit was not always enough
GIV-Gai inh: GIV-Galpha-i interaction inhibition. 210,000 compounds, 0.42% hits. percent of control (FP), % (no concentration beside the values). Galpha-i3/FITC-GIV peptide fluorescence polarization, 90 min; active compounds read low; scaled: aluminum fluoride 0%, vehicle 100%. AID 1224905. P08753;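 active = replicate mean at 85% of control or lower, very high polarization wells dropped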;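 note: wells of about 15 µL received 100 nL stock; the first replicate is given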
GIV Gai FP conf: confirmation of inhibitors of GIV binding to rat Galpha-i3. shares compounds with GIV-Gai inh. FITC-GIV peptide binding to Galphai3, fluorescence polarization; stronger effect = lower value. fluorescence polarization, mP at 100 µM. actives 38% (n = 580). AID 1259350;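 active = inhibition score of 15 or more, meaning 100 minus mean polarization as percent of control over three replicates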
GIV-Gai AS conf: confirmation of inhibitors of GIV binding to human Galpha-i3; actives 39% (n = 580); AlphaScreen Galphai3-GIV binding, purified proteins, 90 min; stronger effect = lower value; AID 1259351; AlphaScreen counts at 100 µM; shares compounds with GIV-Gai inh;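 active = inhibition score at or above a set limit, where the score is 100 minus the three-replicate mean percent of control signal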
The depositor's hits bear a star; . = no result given. Shown are actives, neighbours in structure and some others; about 0.46% of the full set was active somewhere.

Every second line gives: HCMV UL50-53 inh, GIV-Gai inh, GIV Gai FP conf, GIV-Gai AS conf
#1 CCN1C(=O)C2C(c3ccccc3C)NC(Cc3ccc(O)cc3)(C(=O)OC)C2C1=O (configuration not stated)
 : -15, 104, ., .
#2 Cn1c(=O)c(-c2ccccc2)c2c3c(cccc31)C(=O)c1ccccc1-2
 : ., 110, ., .
#3 Cn1c(=O)c(C(=O)CS(=O)(=O)O)c2c3c(cccc31)C(=O)c1ccccc1-2
 : ., 55*, 22*, 7785*
#4 O=C(O)c1cccc(Nc2ncnc3scc(-c4ccccc4)c23)c1
 : -11, 72*, 82, 29755
#5 CC(C)Nc1ncnc2scc(-c3ccccc3)c12
 : -14, 104, ., .
#6 CCN1CCN(C(=O)c2sc3ncnc(N4CCN(c5ccccc5F)CC4)c3c2C)CC1
 : ., 97, ., .
#7 Cc1[nH]c(C)c(S(=O)(=O)N2CCC(C(=O)NC3CCCc4ccccc43)CC2)c1C(=O)N1CCCC1 (configuration not stated)
 : 10, 107, ., .
#8 CNc1ccc(Cl)cc1C(=O)NCCc1ccc(OC)c(OC)c1
 : -6, 103, ., .
#9 CC(C)OC(=O)c1cc2c(OCC(O)CNC(C)(C)C)cccc2[nH]1 (configuration not stated)
 : -14, ., ., .
#10 CC(C)=NNC(=O)Cc1c[nH]c2cccc(OCC(O)CNC(C)(C)C)c12 (configuration not stated)
 : -26, 90, 76, 32755
#11 CCOC(=O)N1CCN(C(=O)c2ccc3nc(-c4ccc(OC)c(OC)c4)c(-c4ccc(OC)c(OC)c4)nc3c2)CC1
 : ., 84*, 65, 50289
#12 COc1ccc(-c2nc3ccc(C(=O)N4CCN(c5ccccc5)CC4)cc3nc2-c2ccc(OC)c(OC)c2)cc1OC
 : ., 102, ., .
#13 Cc1sc2nc(-c3cccs3)oc(=O)c2c1C
 : 0, ., ., .
#14 Cc1sc2nc(/C=C/c3ccco3)oc(=O)c2c1C
 : -9, 79*, 60, 46890
#15 CCOC(=O)/C=C1\SCC(=O)N1Cc1ccc(C)cc1
 : -24, ., ., .
#16 Cc1ccc(/C=C2/C(=O)NC(=O)N(C3CCCCC3)C2=O)cc1
 : -1, 101, ., .
#17 Cc1cc(N2Cc3ccccc3C2)ccc1/C=C1/C(=O)NC(=O)N(C2CCCCC2)C1=O
 : ., 87, 71, 48945
#18 CCOC(=O)N1CCC2(CC1)OC(=O)C(C)=C2C(=O)N1CCCC1
 : -20, 105, ., .
#19 CCn1c2ccc(OC)cc2c2nc3ccccc3nc21
 : -60, 96, ., .
#20 CCn1c2ccccc2c2nc3cc4ccccc4cc3nc21
 : -8, 44*, 39*, 55414
#21 O=C(COc1cccc(-c2nc(-c3ccccc3)no2)c1)N1CCCC1
 : 7, 108, ., .
#22 Cc1cc(Cl)ccc1-n1ncc2c(N3CC(C)OC(C)C3)ncnc21 (configuration not stated)
 : ., 103, ., .
#23 CCOC(=O)CSc1n[nH]c(-c2ccco2)n1
 : ., 104, ., .
#24 O=C(O)c1ccc(CSc2n[nH]c(-c3ccco3)n2)cc1
 : 5, 78*, 58*, 2493*
#25 CC(C)n1cnc2nc(CSc3ccccc3NC(=O)COc3ccc(Cl)cc3)cc(=O)n21
 : -30, 96, ., .
#26 CC1=C(C(=O)OC2CCCCC2)C(c2coc3ccc(Cl)cc3c2=O)C2=C(CC(C)(C)CC2=O)N1 (configuration not stated)
 : -10, 92, 63, 54497
#27 CC1=C(C(=O)OC2CCCCC2)C(c2coc3ccc(Cl)cc3c2=O)C2=C(CCCC2=O)N1 (configuration not stated)
 : -20, 105, ., .
#28 CC(=O)Nc1ccc(C2=N/C(=C/c3cc(Br)cs3)C(=O)O2)cc1
 : -13, 93, 68, 42375
#29 O=C1OC(c2ccc(Cl)c([N+](=O)[O-])c2)=N/C1=C\c1cc(Br)cs1
 : ., 110, ., .
#30 O=C(N/N=C/c1ccco1)c1cccc(S(=O)(=O)Nc2cccc(Cl)c2)c1
 : -27, ., ., .
#31 CCOC(=O)N1CCN(C(=S)Nc2ccc3nsnc3c2)CC1
 : -76, 77*, 61*, 21787
#32 CCOC(=O)N1CCN(C(=S)Nc2ccc(C)c(C)c2)CC1
 : -14, ., ., .
#33 CCOCCOC(=O)C1=C(C)NC2=C(C(=O)CC(c3ccc(Cl)cc3)C2)C1c1ccc([N+](=O)[O-])cc1 (configuration not stated)
 : -2, 108, ., .
#34 Cc1ccc(S(=O)(=O)Nc2ccc(N3CCN(c4cccc(Cl)c4)CC3)c(C(=O)O)c2)cc1
 : -5, 100, ., .
#35 COc1ccc(OC)c(/C=c2\sc3nc4ccccc4n3c2=O)c1
 : -7, 89, 52*, 38058
#36 O=C(Cn1cc(/C=c2/sc3nc4ccccc4n3c2=O)c2ccccc21)N1CCCC1
 : -27, 80*, 78, 43306
#37 O=C(Cn1cc(/C=c2/sc3nc4ccccc4n3c2=O)c2ccccc21)Nc1ccccc1
 : ., 108, ., .
#38 COc1ccc(/C=c2/sc3nc4ccccc4n3c2=O)cc1
 : 9, ., ., .
